Laboratory results reported in PubChem BioAssay AID588413 (Sanford-Burnham Center for Chemical Genomics, 2011).
The entries are a selection whose mix differs from that of the whole data set. Activity calls are given as the source filed them.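 Rule for the calls: active = inhibition above about 55% (limit read from the data); inactive = the rest.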

Experiment: Gli-Sufu pathway antagonists, primary screen, luciferase luminescence, Sufu-KO-LIGHT cells, uHTS (AID 588413);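 note: 0% = DMSO-treated cells and 100% = wells with medium but no cells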
Conditions: Sufu-KO-LIGHT fibroblasts, Gli luciferase reporter luminescence; at 5 µM; stronger effect = higher value
In the case of `CCC(=O)N(c1ccccc1)C1(COC)CCN(CCc2cccs2)CC1`, the inhibition is reported as inactive: 27.9%.
With `CCC(=O)N(c1ccccc1)C1(COC)CCN(CCn2nnn(CC)c2=O)CC1` the inhibition was inactive: -1.08%.
